Target: κ receptor (Cavia porcellus, UniProt P41144)
Test: κ receptor radioligand binding assay with [3H]U-69,593, guinea pig brain membranes
Conditions: for Ki: read-out: Ki ± SEM κ Receptor, [3H]U-69,593, guinea pig brain membranes, with SEM n = 3, without SEM one experiment

By UniProt entry, the sequences of proteins in these tests, tags left out. Where a name states a change or a piece, a line headed by the entry shows the natural chain unless it says otherwise.
UniProt P41144: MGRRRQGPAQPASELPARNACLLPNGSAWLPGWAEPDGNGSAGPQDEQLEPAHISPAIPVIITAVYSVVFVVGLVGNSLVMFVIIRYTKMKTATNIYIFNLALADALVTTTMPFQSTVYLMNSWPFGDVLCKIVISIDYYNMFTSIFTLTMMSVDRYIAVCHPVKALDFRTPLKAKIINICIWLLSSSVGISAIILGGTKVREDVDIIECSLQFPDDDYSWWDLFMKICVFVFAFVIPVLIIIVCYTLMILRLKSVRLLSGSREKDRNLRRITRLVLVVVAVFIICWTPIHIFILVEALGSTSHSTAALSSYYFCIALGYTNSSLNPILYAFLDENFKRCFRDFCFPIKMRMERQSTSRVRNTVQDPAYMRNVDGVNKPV

Question: CN(C(=O)Cc1ccc(Cl)c(Cl)c1)C1CCC2(CCCO2)CC1N1CCCC1 (stereo not drawn) was tested. Which Kd (read-out: Kd-value of the radioligand, κ assay, guinea pig brain membrane preparation) did it give?
Answer: The Kd was 0.69 nM.

Question: What about the Ki of the same molecule?
Answer: Its Ki is 0.88 nM.

Question: For CN(C(=O)Cc1ccc(Cl)c(Cl)c1)C1CCCCC1N1CCCC1 (stereo not drawn), which Ki is on record?
Answer: The Ki was 0.34 nM.
